Assay [1] concerns cytosolic LPC. Briefly: Cytosolic LPC concentration in HepG2 cells. The class given is cell-based, human. The conditions noted are these: read-out: suppression of cytosolic LPC (IC50); 30 min treatment (Fig. 7).
The test system of assay [2] is HepG2 cells. Briefly: Fatty acid ([3H]oleate:albumin) influx in HepG2 cells. The class given is cell-based, human.

Structures are written as SMILES.

A word on the IC50: it is the concentration that gives 50% inhibition. Broadly, the Km is the concentration of substrate that gives half-maximal velocity.

As for `CCCCC/C=C\C/C=C\C/C=C\C/C=C\CCCCOP(=O)(F)OC` (stereo not shown), the IC50 stood at 62 µM in assay [1] and 56 µM in assay [2] (read-out: inhibition of fatty acid influx (IC50), 1-h treatment with increasing concentrations (Fig. 2A)). Besides, the “Vmax of [3H]oleate influx” value in assay [2] (pretreatment UDCA-LPE 100 µM, 1 h or MAFP 150 µM, 1 h, control 61.80) came to 26.38 nmol/mg protein/min. The Michaelis-Menten constant (Km) in assay [2] (read-out: Km of [3H]oleate influx, pretreatment UDCA-LPE 100 µM, 1 h or MAFP 150 µM, 1 h) came out at 0.303 µM.

Source of the values: patent EP2929785A1, “A PLA inhibitor for inhibition of fat absorption” (PAT GmbH, priority 2014, dated 2015).
